Source: paper PMC4124904 (British journal of haematology, 2010)

Assay: Pharmacokinetic analysis of vorinostat and two metabolites
Assay type: in vivo, human
Details: with idarubicin
In short: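 Relapsed/refractory leukaemia patients self-dosed oral HDAC inhibitor TID for 14 days (arm A) or 3 days (arm B), 3+3 escalation from 100 mg, with anthracycline 12 mg/m2 IV over 30 min on days 1–3. Blood clotted 20–30 min at 4°C, spun 2,000 × g 15 min at 4°C, serum stored at -70°C. Parent, glucuronide and acid metabolites (metabolites in first 19 patients) measured by validated LC-ESI-MS/MS. Dosing times unrecorded, so only Cmax and Tmax were derived.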

Glucuronide metabolite Mean Tmax (vorinostat 100 mg TID for 3 days oral): 2.2 h | Glucuronide metabolite Mean Tmax (vorinostat 100 mg TID for 14 days oral): 2.8 h | Glucuronide metabolite Mean Tmax (vorinostat 200 mg TID for 3 days oral): 2.3 h | Glucuronide metabolite Mean Tmax (vorinostat 300 mg TID for 3 days oral): 2.5 h | Glucuronide metabolite Mean Tmax (vorinostat 400 mg TID for 3 days oral, metabolites measured in only 1 patient): 1 h
Substance: vorinostat-glucuronide
